Test results: patent US8492379B2, “Translocator protein ligands” (The University of Sydney, priority 2007, dated 2013)

Sequences of proteins named here, by UniProt entry; tags and fusion partners are left off.
UniProt P16257, whole entry, looked up: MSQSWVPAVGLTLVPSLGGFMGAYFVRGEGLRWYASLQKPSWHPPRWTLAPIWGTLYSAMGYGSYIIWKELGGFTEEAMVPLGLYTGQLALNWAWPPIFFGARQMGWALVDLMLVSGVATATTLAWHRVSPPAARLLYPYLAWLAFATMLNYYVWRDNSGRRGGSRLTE

Target: TSPO (Rattus norvegicus (Rat), UniProt P16257)
Assay: In vitro binding affinity, 3H-PK11195 displacement in kidney mitochondria
Details: 0.6 nM 3H-PK11195, mitochondria from kidneys of male Wistar rats, 90 min at 4° C.
Description: 3H-PK11195 (specific activity 322 GBq/mmol) and 3H-Ro 15-1788 (specific activity 311 GBq/mmol) were purchased from Dupont-New England Nuclear. For binding studies, mitochondria were prepared as described in Trapani G., et al. J Med Chem. 1997; 40:3109-3118, with minor modifications as described here, from the kidneys of male Wistar rats killed by cervical dislocation. The kidneys were homogenized in 20 volumes of ice-cold 50 mM Tris-HCl (pH 7.4), 0.32 M sucrose, and 1 mM ethylenediaminetetraacetic acid (buffer A) containing protease inhibitors (benzamidine at […], bacitracin at […], and soybean trypsin inhibitor at […]) with a Teflon (DuPont) pestle in a glass homogenizer and centrifuged at 600 g for 10 min at 4° C. The resulting supernatant was centrifuged at 10,000 g for 10 min at 4° C. The pellet was suspended in 20 volumes of ice cold buffer A and centrifuged at 10,000 g for 10 min at 4° C. The crude mitochondrial pellet was frozen at −20° C. until the time of the assay or incubated with 0.6 nM 3H-PK11195 in 50 mM Tris-HCl (pH 7.4) (buffer B) with a range of concentrations of the tested compounds (0.1 nM-10 mM) in a total volume of 0.5 mL for 90 min at 4° C. The incubation was terminated by dilution to 5 mL with icecold buffer B; this step was followed immediately by rapid filtration through glass fiber Whatman GF/C filters. The filters were washed (2.5 mL) with buffer B, and the amount of radioactivity retained on the filters was determined with a Packard 1600 TR liquid scintillation counter at 66% efficiency. Nonspecific binding was estimated for each sample in the presence of unlabeled 1 mM PK11195. The 50% inhibitory concentrations were determined, and the dissociation constant (Ki) values were derived according to a previously derived equation (Cheng Y., et al. Biochem Pharmacol. 1973; 22:3099-3108). The protein concentration was estimated by the method of Lowry et al. (J Biol Chem. 1951; 193:265-275) with bovine serum albumin (Sigma-Aldrich) as the standard.

Question: How did the Ki turn out when `CCN(CC)C(=O)Cc1c(-c2ccc(O)cc2)nc2c(C)cc(C)nn12` was run?
Answer: 11 nM

Question: How did the Ki turn out when `CCN(CC)C(=O)Cc1c(-c2ccc(OC)cc2)nc2c(C)cc(C)nn12` was run?
Answer: 2.61 nM

Question: Which Ki does the source give for `CCN(CC)C(=O)Cc1c(-c2ccc(OCCF)cc2)nc2c(C)cc(C)nn12` here?
Answer: 1.55 nM
